Data on two substances can be found in US20240317727A1 (Duke University, priority 2018, published 2024).

Chains of the proteins cited; added tags and fusions are not shown. Lines headed by an entry give the natural chain unless they say otherwise; changes in a name come on top.
UniProt Q00613: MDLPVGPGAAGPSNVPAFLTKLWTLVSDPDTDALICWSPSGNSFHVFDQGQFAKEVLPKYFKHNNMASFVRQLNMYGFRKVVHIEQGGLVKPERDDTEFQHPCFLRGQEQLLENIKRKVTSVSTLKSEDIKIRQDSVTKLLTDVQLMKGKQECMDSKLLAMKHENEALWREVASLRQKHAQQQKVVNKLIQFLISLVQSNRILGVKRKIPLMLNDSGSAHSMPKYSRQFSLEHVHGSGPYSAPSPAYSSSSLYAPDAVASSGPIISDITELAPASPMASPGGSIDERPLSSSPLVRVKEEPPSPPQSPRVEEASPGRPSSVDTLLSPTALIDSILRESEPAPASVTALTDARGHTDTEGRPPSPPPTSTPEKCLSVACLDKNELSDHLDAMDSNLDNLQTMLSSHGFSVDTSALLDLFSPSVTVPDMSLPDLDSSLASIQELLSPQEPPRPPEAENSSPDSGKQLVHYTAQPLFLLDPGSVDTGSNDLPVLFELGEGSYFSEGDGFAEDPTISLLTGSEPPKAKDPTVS

This assay concerns the target recombinant HSF1 DNA-binding domain (DBD) (Homo sapiens, UniProt Q00613). Description: Differential Scanning Fluorimetry (DSF), HSF1 DBD melting temperature. The settings on record: Table 3; 5 μM HSF1 DBD, 25PM Compound; positive = stabilizes, negative = destabilizes HSF1.

On to “1-(4-chloro-3-(trifluoromethyl)phenyl)-3-(4-cyanocyclohexyl)urea”, for which the ΔTm was -9.91 °C.

Regarding “1-(4-cyano-3-(2-morpholinoethoxy)phenyl)-3-(1,1-dioxidobenzo[b]thiophen-6-yl)urea”, the shift in melting temperature (ΔTm) was 2.94 °C.
